Measured values published in patent US10226449B2, “Heterocyclic modulators of lipid synthesis and combinations thereof” (priority 2013, dated 2019).

System: HCV1b replicon
Assay: HCV1b replicon antiviral assay (luciferase reporter)
Assay type: cell-based
Conditions: HCV genotype 1b replicon; read-out: HCV GT1b EC50

Substance: (3-(4-chloro-2-methyl-1H-imidazol-5-yl)-4-methylphenyl)(4-(4-chlorophenyl)piperidin-1-yl)methanone [Compound 42]
- EC50: 115 nM
